Measurements reported in US11945799B2, “4-ethynylpyridine derivatives useful as GCN2 inhibitors” (IP2IPO INNOVATIONS LIMITED, priority 2020, dated 2024).

Protein sequences, listed by entry. Tags and fused reporters are not part of them.
UniProt Q9P2K8, whole entry: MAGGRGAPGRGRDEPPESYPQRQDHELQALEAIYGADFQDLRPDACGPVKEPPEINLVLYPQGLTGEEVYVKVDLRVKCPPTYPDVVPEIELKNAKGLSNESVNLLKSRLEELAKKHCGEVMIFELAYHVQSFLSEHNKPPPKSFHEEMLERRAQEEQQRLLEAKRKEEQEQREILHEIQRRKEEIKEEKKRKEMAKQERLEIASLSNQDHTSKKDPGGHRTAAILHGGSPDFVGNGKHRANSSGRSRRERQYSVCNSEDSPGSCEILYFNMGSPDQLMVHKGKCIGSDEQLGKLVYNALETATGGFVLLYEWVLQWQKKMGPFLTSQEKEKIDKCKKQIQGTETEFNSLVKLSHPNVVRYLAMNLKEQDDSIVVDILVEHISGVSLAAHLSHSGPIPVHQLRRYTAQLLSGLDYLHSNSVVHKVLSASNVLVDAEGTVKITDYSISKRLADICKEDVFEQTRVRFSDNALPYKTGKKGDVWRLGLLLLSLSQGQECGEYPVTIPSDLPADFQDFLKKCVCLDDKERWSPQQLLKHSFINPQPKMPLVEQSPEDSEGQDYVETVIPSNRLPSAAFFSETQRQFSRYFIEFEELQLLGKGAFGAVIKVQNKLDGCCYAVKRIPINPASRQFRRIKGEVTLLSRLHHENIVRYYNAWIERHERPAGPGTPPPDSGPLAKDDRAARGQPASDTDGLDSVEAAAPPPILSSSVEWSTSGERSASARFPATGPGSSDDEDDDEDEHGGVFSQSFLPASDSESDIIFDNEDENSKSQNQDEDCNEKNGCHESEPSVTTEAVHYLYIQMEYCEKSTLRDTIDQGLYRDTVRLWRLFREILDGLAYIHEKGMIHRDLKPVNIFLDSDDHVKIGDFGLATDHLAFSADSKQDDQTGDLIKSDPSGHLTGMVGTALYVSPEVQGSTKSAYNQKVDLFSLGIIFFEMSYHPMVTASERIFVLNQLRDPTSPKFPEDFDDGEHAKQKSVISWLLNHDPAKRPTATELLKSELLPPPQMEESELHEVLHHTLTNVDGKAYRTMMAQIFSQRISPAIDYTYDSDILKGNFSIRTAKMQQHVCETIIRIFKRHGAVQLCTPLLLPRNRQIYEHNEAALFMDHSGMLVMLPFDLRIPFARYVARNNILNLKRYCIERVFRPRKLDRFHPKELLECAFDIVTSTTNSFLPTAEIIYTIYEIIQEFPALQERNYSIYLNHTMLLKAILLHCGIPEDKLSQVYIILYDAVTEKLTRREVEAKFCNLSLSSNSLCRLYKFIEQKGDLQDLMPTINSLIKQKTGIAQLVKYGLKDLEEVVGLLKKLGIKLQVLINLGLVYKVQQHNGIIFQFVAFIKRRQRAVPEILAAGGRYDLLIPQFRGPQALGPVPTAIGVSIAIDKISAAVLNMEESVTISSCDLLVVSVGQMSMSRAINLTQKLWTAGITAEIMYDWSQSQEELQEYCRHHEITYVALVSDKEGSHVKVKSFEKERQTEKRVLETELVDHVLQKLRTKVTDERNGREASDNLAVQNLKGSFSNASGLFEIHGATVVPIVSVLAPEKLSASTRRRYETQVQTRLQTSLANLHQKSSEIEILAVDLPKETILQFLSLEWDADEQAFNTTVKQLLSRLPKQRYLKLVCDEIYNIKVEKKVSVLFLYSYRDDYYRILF

Key:
[1] = target: full-length human GCN2 enzyme (Homo sapiens, UniProt Q9P2K8); assay: GCN2 enzyme inhibition, LanthaScreen TR-FRET Kinase Activity assay (10 μM and 300 μM ATP); type: biochemical; conditions: for IC50 / Ki: mean of replicate assays
[2] = Kinetic solubility in PBS buffer pH 7.4; conditions: PBS buffer pH 7.4, 90 minutes at room temperature, from 10 mM DMSO stock

Row | Structure (SMILES) | GCN2 inhibitory activity (in words) [1] | Kinetic Solubility [2] | IC50 ([1]; read-out: GCN2 IC50 (nM) 10 uM ATP, 10 uM ATP) | IC50 ([1]; read-out: GCN2 IC50 (nM) 300 uM ATP, 300 uM ATP) | Ki ([1]; read-out: GCN2 Ki (nM) 10 uM ATP, 10 uM ATP) | Ki ([1]; read-out: GCN2 Ki (nM) 300 uM ATP, 300 uM ATP)
1 | Nc1ncc(C#Cc2nccc(NS(=O)(=O)c3cc(Cl)ccc3Cl)c2F)cn1 | extremely poor activity | 227.3 µg/mL |  |  |  | 
2 | COc1ncc(Cl)cc1S(=O)(=O)Nc1ccc(F)c(C#Cc2cnc3[nH]ncc3c2)c1F |  | 3.9 µg/mL | 5.8 nM | 31 nM | 1.8 nM | 0.5 nM

Like-named read-outs stand apart in the source and are kept apart here.
